In the test the target is T1, LOXL2 (Homo sapiens, UniProt Q9Y4K0).
T1 sequence (Q9Y4K0 26-774): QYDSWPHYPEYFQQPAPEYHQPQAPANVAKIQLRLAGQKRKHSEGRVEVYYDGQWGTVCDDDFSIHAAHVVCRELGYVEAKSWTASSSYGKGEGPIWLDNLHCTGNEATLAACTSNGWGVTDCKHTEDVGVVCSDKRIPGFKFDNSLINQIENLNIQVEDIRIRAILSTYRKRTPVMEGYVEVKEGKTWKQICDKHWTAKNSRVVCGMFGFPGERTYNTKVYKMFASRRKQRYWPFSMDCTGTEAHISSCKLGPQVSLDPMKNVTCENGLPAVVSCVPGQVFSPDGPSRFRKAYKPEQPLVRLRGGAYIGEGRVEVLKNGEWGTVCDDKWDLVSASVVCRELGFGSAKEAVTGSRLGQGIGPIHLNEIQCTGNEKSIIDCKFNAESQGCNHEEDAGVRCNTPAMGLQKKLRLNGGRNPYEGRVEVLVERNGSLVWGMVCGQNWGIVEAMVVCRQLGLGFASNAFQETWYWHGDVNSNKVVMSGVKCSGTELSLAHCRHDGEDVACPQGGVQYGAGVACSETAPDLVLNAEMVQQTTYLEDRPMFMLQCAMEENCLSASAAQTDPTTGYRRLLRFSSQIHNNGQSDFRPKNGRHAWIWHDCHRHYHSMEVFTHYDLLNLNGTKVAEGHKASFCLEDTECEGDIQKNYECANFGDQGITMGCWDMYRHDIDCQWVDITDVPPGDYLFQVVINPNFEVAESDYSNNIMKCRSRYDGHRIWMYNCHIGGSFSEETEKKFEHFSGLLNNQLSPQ
In words: LOXL2 enzyme assay (Promega ROS-Glo, cadaverine substrate). It is filed as biochemical.

Experimental findings from article PMC7073924, “2-Aminomethylene-5-sulfonylthiazole Inhibitors of Lysyl Oxidase (LOX) and LOXL2 Show Significant Efficacy in Delaying Tumor Growth” (Journal of Medicinal Chemistry, 2019) are described below.

“And” between values parts separate entries of the source, which are not always exact repeats. Equal entries are not always repeated. Structures can show the parent of a compound that is named as a salt.

A word on the IC50: it is the point on the concentration scale where inhibition reaches its midpoint. Higher therefore signals lower potency. Take `COc1cc(-c2ccccc2)cc(S(=O)(=O)c2cnc(CN)s2)c1` [Compound 7h, (5-((5-Methoxy-[1,1′-biphenyl]-3-yl)sulfonyl)thiazol-2-yl)methanamine Hydrochloride]: the IC50 is 270 nM and 255 nM.
Turning to `NCc1nc(S(=O)(=O)c2ccc3ccccc3c2)cs1` [Compound 22a, (4-(Naphthalen-2-ylsulfonyl)thiazol-2-yl)methanamine Hydrochloride], the IC50 was 895 nM and 828 nM.
